Measurements as given in patent US7195758.

Protein sequences, listed by entry. Tags and fused reporters are not part of them. Residues count along the entry.
UniProt P42081, 24-329: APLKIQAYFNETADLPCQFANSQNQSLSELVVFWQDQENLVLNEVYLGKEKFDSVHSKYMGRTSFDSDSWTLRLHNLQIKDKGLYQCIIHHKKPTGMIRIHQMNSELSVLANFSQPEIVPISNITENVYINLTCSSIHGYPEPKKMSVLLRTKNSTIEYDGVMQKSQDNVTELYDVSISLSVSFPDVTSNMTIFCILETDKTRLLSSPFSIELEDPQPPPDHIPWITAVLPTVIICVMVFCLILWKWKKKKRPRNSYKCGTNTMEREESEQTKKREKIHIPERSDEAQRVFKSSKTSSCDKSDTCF

Legend:
[1] = target: CD80 (B7-1) (human) (UniProt P33681); experiment: cell-based or functional assay
[2] = target: CD86 (B7-2) (human) (UniProt P42081); experiment: cell-based or functional assay

## CTLA4-Ig (from UniProt P16410 38-161) (Fc fusion)
[1]
  decrease in T cell proliferation in primary MLR with CD4+ T cells, stimulators CD40-B cells from day 15: 75%
  decrease in T cell proliferation in primary MLR with CD4+ T cells, stimulators unstimulated B cells and CD40-B cells activated only for short terms: > 95%
[2]
  decrease in T cell proliferation in primary MLR with CD4+ T cells, stimulators CD40-B cells from day 15: 75%
  decrease in T cell proliferation in primary MLR with CD4+ T cells, stimulators unstimulated B cells and CD40-B cells activated only for short terms: > 95%
